Rango-impB inh – inhibitors of Rango-importin beta complex formation; Rango CFP/YFP FRET sensor + importin beta, 45 min; Potency, µM (doses to about 92.2 µM), for the others: at the highest dose inhibition of complex formation; hit rate 0.031% among 340,000; AID 540263; calls by dose curve;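 further: 0% = DMSO wells and 100% = buffer wells lacking importin beta; nearly all actives have a fitted effect of over 15% in size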
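Inhibition scored from the CFP 486 nm/YFP 530 nm FRET ratio 45 min after adding 0.125 microM importin beta to 50 nM Rango biosensor preincubated 5 min with compound (room temperature, PBS with DTT, Tween-20, BSA). No-importin wells as positive control.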
S-ASM inh – blocks human secretory acid sphingomyelinase; P17405; placental ASM, HMU-PC fluorogenic substrate, 60 min; Potency, µM (series often up to 57.5 µM), without a hit: top-dose activity change, negative = inhibition, usual class: inhibitors; hit rate 0.006% among 340,000
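Steps: dispense placental human ASM, pin compound, wait 10 min at room temperature, add HMU-PC0 substrate at 9 uM final, incubate 60 min at 37 °C, add stop solution raising pH to 10, read fluorescence.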
Vif-APOBEC3G blk – blocks the Vif interaction with human APOBEC3G. Potency, µM (top dose mostly 46.1 µM), for the others: at the top dose activity, negative = active, actives largely listed as inhibitors. AID 602310. hit rate 0.076% among 410,000. HeLa A3G-eYFP + Vif (tagged APOBEC3G with the HIV-1 protein that degrades it), YFP fluorescence, overnight; further: on the % scale 0 is the no-effect control and ±100 the full control effect; nearly all actives have a fitted effect of over 60% in size
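HeLa cells stably expressing Vif and C-terminally eYFP-tagged A3G, seeded overnight at 37 deg C, then exposed to compound by pintool overnight at 37 deg C. Rise in yellow fluorescence (Ex 488/Em 500-530, Acumen) marks blocked Vif-driven A3G degradation.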
Eya2 inh – inhibitors of human Eya2 phosphatase activity | O00167 | hit rate 0.006% among 330,000 | recombinant Eya2, OMFP fluorescence dephosphorylation (OMFP is methylfluorescein phosphate) | Potency, µM (highest dose often 76.9 µM), inactives show at the highest dose activity, negative = inhibition, usual class: inhibitors | AID 488837; further: on the % scale 0 is the no-effect control and ±100 the full control effect
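Eya2 protein (added as 0.2 uM solution) was preincubated with compound for 10 min at ambient temperature in 50 mM HEPES pH 7.5, 50 mM NaCl, 5 uM MgCl2, 0.05% BSA, 1 mM DTT. OMFP (added at 50 uM) then reacted 10 min; fluorescence read at 485/525 nm.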
Rango dissoc inh – inhibitors of RanGTP-induced Rango-importin beta complex dissociation; hit rate 0.071% among 340,000; Potency, µM (titrated, usually from 46.1 µM), for inactives: top-dose activity change, negative = inhibition; Biochemical FRET Rango-importin beta, RanGTP-induced dissociation; O95149+P62826; calls by dose curve; further: % of control where 0% means no effect; nearly all actives have a fitted effect of over 45% in size
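FRET read at 45 min, room temperature: inhibitors block the CFP/YFP signal rise when RanGTP (0.6 uM Ran, 2 mM GTP, 0.2 uM RCC1) frees Rango (0.1 uM) from importin beta (0.25 uM). Pre-read after 5 min compound exposure flags interference.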
Vif-A3F inh – inhibitors of Vif-A3F interaction; HeLa A3F-eYFP + Vif (tagged APOBEC3F with the HIV-1 protein that degrades it), YFP fluorescence increase; Potency, µM (doses to about 46.1 µM), without a hit: at the top dose activity, negative = active; hit rate 0.2% among 390,000; further: % of control where 0% means no effect; nearly all actives have a fitted effect of over 65% in size
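Fluorescence increase (Ex 488/Em 500-530) after overnight compound treatment at 37 deg C flags inhibition of Vif-driven A3F-eYFP loss in stable HeLa A3F-eYFP/Vif cells seeded overnight beforehand.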
* = called active by the depositor; i = inactive; ? = inconclusive; . = not tested or not shown; ! = repeats disagree. Sampled rows, rich in hits. Any-hit rate of the full collection: about 0.34%. Unless noted, the call rests on the fitted dose curve; in most records, active means well fitted curve in the direction sought with a large enough effect; inconclusive means small, poorly fitted or top-dose-only effect, or another doubt; inactive means no such curve, though single readings can be large; an effect the other way counts as inactive or inconclusive. Potency means the concentration at half of the fitted maximal effect.

nr | Compound | Rango-impB inh | S-ASM inh | Vif-APOBEC3G blk
1 | Cc1cc2c(C(C)C)c(O)c(O)c(C=O)c2c(O)c1-c1c(C)cc2c(C(C)C)c(O)c(O)c(C=O)c2c1O | . | . | 10%
2 | CCN(CC)c1ccc(N=Cc2c(O)n(CCC3=CCCCC3)c(=O)[nH]c2=O)cc1 | ? | -1% | -5%
3 | COc1ccc(/C=C2\Oc3cc(OC(=O)N4CCOCC4)ccc3C2=O)c(OC)c1 | ? | 142% | ?
4 | CC(C)CCCn1c(O)c(/C=C2/C=CC=N2)c(=O)[nH]c1=O | ? | -7% | ?
5 | O=C1NC(=O)N(Cc2ccc(F)cc2)C(=O)/C1=C\C=C\c1ccco1 | ? | -8% | ?
6 | O=C1NC(=O)N(Cc2ccccc2)C(=O)/C1=C\c1ccco1 | ? | -4% | -14%
7 | CC(C)c1ccc(N2C(=O)NC(=O)/C(=C/C=C/c3ccco3)C2=O)cc1 | ? | -2% | 8.9µM*
8 | NCC(=O)c1ccc(Br)cc1 | . | . | 0%
9 | CCS(=O)(=O)N1N=C(c2cccc(NS(C)(=O)=O)c2)CC1c1ccccc1 (stereo not given) | ? | 0% | 10µM*
10 | Cc1cccc(-n2c(/C=C/c3ccccc3O)nc3ccccc3c2=O)c1 | . | . | 7%
11 | Cc1cccc(-n2c(/C=C/c3ccc([N+](=O)[O-])o3)nc3ccccc3c2=O)c1 | 3% | -4% | ?
12 | Cc1cccc(-n2c(/C=C/c3c(C)[nH]c4ccccc34)nc3ccccc3c2=O)c1 | . | . | -10%
13 | CCOc1ccc(-c2cc(C(=O)N3CCN(c4cccc(C(F)(F)F)c4)CC3)c3ccccc3n2)cc1 | . | . | ?
14 | CCn1c(SCC(=O)Nc2nncs2)nnc1-c1ccco1 | -2% | 4% | 5%
15 | Cc1ccc(C(=O)CN2CCOCC2)cc1 | . | . | -2%

nr | Eya2 inh | Rango dissoc inh | Vif-A3F inh
1 | 32µM*! | . | .
2 | -13% | ? | 22µM*
3 | 1% | ? | 25µM*
4 | -1% | -16% | 25µM*
5 | 27% | ? | 10µM*
6 | 20% | ? | -35%
7 | 20% | ? | ?
8 | . | . | .
9 | -13% | -6% | 10µM*
10 | . | . | -12%
11 | -2% | -16% | 8.9µM*
12 | . | . | 10µM*
13 | . | . | -5%
14 | -7% | -7% | -1%
15 | . | . | .

Remaining list, next part:
nr | Compound | Rango-impB inh | S-ASM inh | Vif-APOBEC3G blk
16 | CCOc1ccc(CCNC(=O)c2ccc(-n3c(C)cc4c3CCCC4)cc2)cc1OCC | . | . | 0%
17 | NCC(=O)c1cccc([N+](=O)[O-])c1 | . | . | 2%
18 | C#CCOCCOCCOCCNc1nc(N2CCN(C(=O)CCCCCCCCCCNC(=O)[C@H]([C@@H](C)CC)n3cc(CCCCN=C(N)N)nn3)CC2)nc(N2CCN(C(=O)CCCCCCCCCCNC(=O)[C@H](CO)n3cc(CCCCCN)nn3)CC2)n1 | 73µM* | -21% | -18%
19 | CC1(C)N([O])C(c2ccc(C(=O)O)cc2)=[N+]([O-])C1(C)C | . | . | 0%
20 | COc1ccccc1-n1c(/C=C/c2ccc(O)cc2)nc2ccccc2c1=O | ? | 2% | -21%
21 | COc1ccccc1-n1c(/C=C/c2ccccc2)nc2ccccc2c1=O | . | . | -6%
22 | Cc1cccc(-n2c(O)c(/C=C/C=Nc3ccccc3)c(=O)[nH]c2=O)c1 | ? | 1% | 5%
23 | Cc1ccccc1-n1c(O)c(/C=C/C=Nc2ccccc2)c(=O)[nH]c1=O | ? | 4% | 0%
24 | Cc1cc(N(CCCl)CCCl)ccc1C=Cc1ccncn1 | ? | 122% | ?
25 | COC(=O)c1cn(S(=O)(=O)c2ccccc2)c2ccccc12 | 2% | 10% | -14%
26 | Clc1ccccc1CNc1nc2ccccc2n2cnnc12 | -1% | -5% | -15%
27 | Cc1ccc(CNC(=O)c2ccccc2NC(=O)c2nsc3ccccc23)cc1 | . | . | -8%
28 | O=P(O)(O)/C=C(\Cl)c1ccccc1 | -4% | 22µM* | 3%
29 | COP(=O)(/C=C(\Cl)c1ccccc1)/C=C(\Cl)c1ccccc1 | 0% | -4% | 0%
30 | Cn1ncnc2c(=O)n(C)c(=O)nc1-2 | -1% | 2% | -29%

nr | Eya2 inh | Rango dissoc inh | Vif-A3F inh
16 | . | . | ?
17 | . | . | .
18 | -27% | ? | 6%
19 | . | . | .
20 | 19% | ? | 10µM*
21 | . | . | 0%
22 | 20% | ? | 10µM*
23 | 35% | ? | 20µM*
24 | . | ? | 25µM*
25 | -7% | 17% | ?
26 | -1% | -14% | ?
27 | . | . | 13µM*
28 | -10% | -1% | -1%
29 | 3% | -15% | -8%
30 | 20µM* | 9% | 1%

The list continues.
nr | Compound | Rango-impB inh | S-ASM inh | Vif-APOBEC3G blk
31 | O=C(NCc1c(-n2cccc2)sc2c1CCCC2)Nc1cccc(C(F)(F)F)c1 | . | . | -11%
32 | N#CC(c1ccc(Cl)nn1)c1c(F)cccc1Cl (stereo not given) | ? | 1% | -7%
33 | O=Cc1c(C(=O)O)n(Cc2ccc(Cl)cc2)c2ccccc12 | ? | 10% | ?
34 | CCOC(=O)c1c(/N=C/C2C(=O)NC(=S)NC2=O)sc(C)c1C | . | . | .
35 | CCOC(=O)c1c(/N=C/C2C(=O)NC(=S)NC2=O)sc2c1CCC2 | ? | -5% | ?
36 | Cc1cccc(NC(=O)c2cc3c(=O)n4ccccc4nc3n2C)c1C | . | . | ?
37 | C[C@H]1CCCC=CC2C[C@H](O)C[C@@H]2[C@H](O)C=CC(=O)O1 (stereo not given in full) | . | . | -10%
38 | CCCCn1c(O)c(C(CC)=NCCc2ccccc2)c(=O)[nH]c1=O | 0% | -8% | -5%
39 | CCCCn1c(O)c(C(=O)/C=C/c2c[nH]c3ccccc23)c(=O)[nH]c1=O | ? | 7% | 3.2µM*
40 | c1ccc2c(c1)[nH]c1cnccc12 | 0% | 12% | 2%
41 | Cc1c2ccncc2c(C)c2c1[nH]c1ccccc12 | ? | 264% | ?
42 | CCN(CC(=O)Nc1ccccc1C(F)(F)F)C(=O)CCSc1ccc(F)cc1 | 5% | -1% | -2%
43 | COC1=C(C)C(=O)c2c(c(COC(N)=O)c3n2C[C@@H]2[C@@H]3N2C)C1=O (stereo not given in full) | . | . | 1%
44 | CCCCOCCCn1c(N)c(C(=O)OC(C)COC)c2nc3ccccc3nc21 (stereo not given) | ? | i | 0%
45 | COCCCn1c(N)c(C(=O)OC(C)COC)c2nc3ccccc3nc21 (stereo not given) | ? | i | 0%

nr | Eya2 inh | Rango dissoc inh | Vif-A3F inh
31 | . | . | ?
32 | 4% | -10% | 12%
33 | ? | ? | 10µM*
34 | -17% | . | .
35 | 7% | 9.2µM* | ?
36 | . | . | 6%
37 | . | . | .
38 | . | 2% | 2%
39 | 31% | ? | -339%
40 | 3% | -12% | 2%
41 | -6% | ? | 10µM*
42 | 8% | 2% | ?
43 | . | . | .
44 | -6% | 9.2µM* | -9%
45 | 17% | ? | -7%

Given with bars between the fields: part of the list above
item | molecule | Rango-impB inh | S-ASM inh | Vif-APOBEC3G blk | Eya2 inh | Rango dissoc inh | Vif-A3F inh
41 | Cc1c2ccncc2c(C)c2c1[nH]c1ccccc12 | ? | 264% | ? | -6% | ? | 10µM*
32 | N#CC(c1ccc(Cl)nn1)c1c(F)cccc1Cl (stereo not given) | ? | 1% | -7% | 4% | -10% | 12%

Remaining list, next part:
nr | Compound | Rango-impB inh | S-ASM inh | Vif-APOBEC3G blk
46 | O=c1[nH]c(CN2CC=C(c3ccccc3)CC2)nc2scc(-c3ccccc3)c12 | ? | 11% | ?
47 | O=c1[nH]c(CN2CC=C(c3ccccc3)CC2)nc2cc(C(F)(F)F)ccc12 | ? | 11% | -15%
48 | O=C1NC(=O)N(c2ccc3c(c2)OCO3)C(=O)/C1=C\c1ccc(N2CCCCC2)o1 | ? | -15% | -15%
49 | CN1C(=O)C(=Cc2ccc(N3CCOCC3)o2)C(=O)N(C)C1=O | 6% | -3% | -10%
50 | CN1C(=O)C(=Cc2ccc(N3CCCCCC3)o2)C(=O)N(C)C1=S | ? | -9% | ?

nr | Eya2 inh | Rango dissoc inh | Vif-A3F inh
46 | 8% | -29% | 10µM*
47 | -11% | ? | -7%
48 | -7% | -13% | 4.5µM*
49 | -8% | 0% | 11µM*
50 | -2% | 3% | i

One compound at a time (already shown):
Cc1ccc(CNC(=O)c2ccccc2NC(=O)c2nsc3ccccc23)cc1 as listed: Rango-impB inh: .; S-ASM inh: .; Vif-APOBEC3G blk: -8%; Eya2 inh: .; Rango dissoc inh: .; Vif-A3F inh: 13µM*
c1ccc2c(c1)[nH]c1cnccc12 as listed: Rango-impB inh: 0%; S-ASM inh: 12%; Vif-APOBEC3G blk: 2%; Eya2 inh: 3%; Rango dissoc inh: -12%; Vif-A3F inh: 2%

Screens: PubChem BioAssay, National Center for Advancing Translational Sciences (NCATS)
